{"source": "PubChem BioAssay AID493014", "about": "(National Center for Advancing Translational Sciences (NCATS), 2011)", "note": "The entries are a selection whose mix differs from that of the whole data set. Inconclusive results are not listed. Activity calls are given as the source filed them. Calls follow the shape of the dose curve; as a rule, active = well fitted inhibition curve with a large enough effect in the signal ratio, with a control signal flat (not every such curve was filed as active); inconclusive = small, poorly fitted or top-dose-only effect, or effect the other way, or a change in a side signal; inactive = flat fitted curve, though single readings scatter; the % refers to the signal ratio."}
{"test": "qHTS Assay to Find Inhibitors of Chronic Active B-Cell Receptor Signaling;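 also: plate controls were basal doxycycline-induced cells for no effect and cells given 10 µM MG132 for full effect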", "conditions": "ABC-DLBCL IkBa-CBG/CBR reporter, luminescence ratio (green luciferase fused to IkBa over red control in TMD8 lymphoma cells), 4 h; at 46.1 µM (top of the series)", "text": "NIH Molecular Libraries Probe Production Network [MLPCN] NIH Chemical Genomics Center [NCGC] MLPCN Grant: 1 R03 DA031086-01A1 PI Name: Dr. R. Eric Davis NCGC Assay Overview: Diffuse large B-cell lymphoma (DLBCL) is the most common category of non-Hodgkin lymphoma, with ~20,000 new cases per year in the United States. DLBCL should be regarded as a collection of different neoplasms. Microarray gene expression analysis has defined two principal types of DLBCL, named for their similarity to normal B cell stages or activation states: a germinal center B-cell (GCB) type, and an activated B-cell (ABC) type. In ABC-DLBCL, a constitutive high-level activity of the NF-kappaB family of transcription factors has been observed (1) and NF-kappaB target genes are more highly expressed in ABC primary tumors than in GCB tumors. Functional studies have shown a constitutive high-level activity of the IkappaB (inhibitor of kappa-B) kinase (IKK) complex. […] Further analysis of DLBCL primary tumors for NF-kappaB target gene expression imply that although CARD11 is required for constitutive IKK activity in all ABC-DLBCL lines, mutations in CARD11 may be the root cause of IKK activation only in lines or tumors with such mutations. In other words, CARD11 mutations may explain NF-kappaB activation in only 10% of ABC-DLBCL cases. […] This process has been termed 'chronic active BCR signaling' (CABS). The goal of this screen is to find small-molecule inhibitors of the CABS pathway found in ABC-DLBCL lines using a cell-based assay that measures IkappaBalpa stability, which has already been extensively validated in the OCI-Ly3 line (PubChem AID:445; REF: 4). […] The assay uses green (CBG68) and red (CBR) emitting beetle luciferases [Chroma-GloTM developed by Promega Corp.] where the green luciferase is fused to IkappaBalpha and the red luciferase is present in its native state. Both luciferase genes are stably present in the TMD8 human ABC DLBCL cell line, but their expression is under the control of tetracycline-inducible promoters. Following the addition of doxycycline to induce expression of the luciferases, the green luminescence in control cultures rises only slowly because the CBG fusion partner IkappaBalpha is targeted by IKK activity for rapid degradation. In contrast, green luminescence rises rapidly in the presence of proteasome inhibitors or IKK inhibitors. The rise in red luminescence of CBR is not affected by proteasome or IKK inhibitors, and serves as normalization for cell number and nonspecific effects. Compounds were screened as a concentration-titration series that ranged from 46 uM to 3 nM.\nNCGC Assay Protocol Summary: Cells were seeded in 1536-well plates at 5000 cells/4uL in IMDM medium containing 0.5% FBS, w/o phenol red, 1% penicillin/streptomycin. Then, 23 nL of compounds or DMSO were delivered to each well using a pin tool. One uL 20ng/ml doxycycline was then dispensed into white solid 1536-well plates and the plates were incubated at 37C/5% C02 in a cell incubator for 4 hrs. Then 4 uL luminescent substrate mix (in-house prepared: 150 mM Tris-Cl, pH 7.6, 3 mM MgCl2, 1% Triton X-100, 5 mM DTT, 0.2 mM CoA, 0.15 mM ATP, 5 mM D-luciferin, final concentrations) was added to each well. The plate was incubated at r.t. for 10-15 min. The plates were measured on a ViewLux plate reader for green luminescence (540/20 nm filter) and red luminescence (618/8 nm filter). The green and red luminescent signals were corrected for red and green luminescence filter overlap using previously determined filter calibration constants (determined using the procedure outlined in the Promega Technical Manual; REF 4). The %Activity was determined from the ratio of corrected green/red luminescent values. MG132 were used as control. […] Red luminescent %Activity was normalized to the difference between red luminesence in basal cells (0%Activity) and zero luminescence (-100% Activity). […]"}
{"smiles": "Cc1cccc(C)c1OP(C)(N)=O", "note": "(stereo not given)", "activity change, negative = inhibition": "inactive: -0.664%"}
{"smiles": "CC(C)(C)c1ccc(OP(C)(=O)Nc2ccc(SC(F)(F)F)cc2)cc1", "note": "(stereo not given)", "activity change, negative = inhibition": "inactive: -1.27%"}
{"smiles": "Cc1cc(C)cc(OP(C)(N)=O)c1", "note": "(stereo not given)", "activity change, negative = inhibition": "inactive: 5.72%"}
{"smiles": "COc1ccc(OP(C)(=O)Nc2cccc(F)c2)cc1", "note": "(stereo not given)", "activity change, negative = inhibition": "inactive: -7.69%"}
{"smiles": "COc1ccccc1OP(C)(=O)Nc1cc(Cl)ccc1C", "note": "(stereo not given)", "activity change, negative = inhibition": "inactive: -14%"}
{"smiles": "Cc1ccc(NP(C)(=O)Oc2ccccc2)c(C)c1", "note": "(stereo not given)", "activity change, negative = inhibition": "inactive: 12.9%"}
{"smiles": "CCOC(=O)c1ccc(NP(C)(=O)Oc2ccccc2)cc1", "note": "(stereo not given)", "activity change, negative = inhibition": "inactive: 2.15%"}
{"smiles": "Cc1cc(C)cc(OP(C)(=O)Nc2ccc(SC(F)(F)F)cc2)c1", "note": "(stereo not given)", "activity change, negative = inhibition": "inactive: -11.4%"}
{"smiles": "CP(=O)(NC(=O)Nc1ccccc1)Oc1ccccc1", "note": "(stereo not given)", "activity change, negative = inhibition": "inactive: -1.87%"}
{"smiles": "CCc1ccc(OP(C)(=O)N2CCN(c3ccc([N+](=O)[O-])cc3)CC2)cc1", "note": "(stereo not given)", "activity change, negative = inhibition": "inactive: 8.34%"}
{"smiles": "CP(=O)(Oc1ccccc1)OC(c1ccccc1)C(F)(F)F", "note": "(stereo not given)", "activity change, negative = inhibition": "inactive: 0.491%"}
{"smiles": "Cc1cccc(C)c1OP(C)(=O)Nc1ccc(SC(F)(F)F)cc1", "note": "(stereo not given)", "activity change, negative = inhibition": "inactive: -6.16%"}
{"smiles": "CP(=O)(Nc1ccc(SC(F)(F)F)cc1)Oc1ccc(Cl)cc1", "note": "(stereo not given)", "activity change, negative = inhibition": "inactive: -0.0308%"}
{"smiles": "CCOC(=O)c1ccc(NP(C)(=O)Oc2ccc(OC)cc2)cc1", "note": "(stereo not given)", "activity change, negative = inhibition": "inactive: -14.3%"}
{"smiles": "CCOP(C)(=S)SCC(=O)NC(C)C(=O)O", "note": "(stereo not given)", "activity change, negative = inhibition": "inactive: 4.48%"}
{"smiles": "CP(=O)(Nc1ccccc1Br)Oc1ccccc1", "note": "(stereo not given)", "activity change, negative = inhibition": "inactive: 1.4%"}
{"smiles": "COc1ccccc1OP(C)(=O)Nc1ccccc1", "note": "(stereo not given)", "activity change, negative = inhibition": "inactive: 2.9%"}
{"smiles": "CP(=S)(Nn1cnnc1)Oc1ccccc1", "note": "(stereo not given)", "activity change, negative = inhibition": "inactive: -12%"}
{"smiles": "O=[N+]([O-])c1cc([N+](=O)[O-])c(Nc2nnnn2CCO)c([N+](=O)[O-])c1", "activity change, negative = inhibition": "inactive: 8.98%"}
{"smiles": "CCCOc1ccc(NP(C)(=O)Oc2ccc(Cl)cc2)cc1", "note": "(stereo not given)", "activity change, negative = inhibition": "inactive: 1.1%"}
{"smiles": "CP(=O)(Nc1ccc(SC(F)(F)F)cc1)Oc1ccccc1", "note": "(stereo not given)", "activity change, negative = inhibition": "inactive: -11.4%"}
{"smiles": "COc1ccccc1OP(C)(=O)Nc1c(C)cccc1C", "note": "(stereo not given)", "activity change, negative = inhibition": "inactive: 4.77%"}
{"smiles": "CN1CCCCC1COC(=O)C1(O)c2ccccc2CCc2ccccc21", "note": "(stereo not given)", "activity change, negative = inhibition": "inactive: 4.72%"}
{"smiles": "O=[N+]([O-])c1cc([N+](=O)[O-])c(-n2nnc3ccccc32)c([N+](=O)[O-])c1", "activity change, negative = inhibition": "inactive: 1.83%"}
{"smiles": "Cc1nc2ccc3ccccc3c2s1.O=[N+]([O-])c1cc([N+](=O)[O-])c(O)c([N+](=O)[O-])c1", "activity change, negative = inhibition": "inactive: -1.36%"}
{"smiles": "CCOC(=O)c1ccc(NP(C)(=O)Oc2cc(C)cc(C)c2)cc1", "note": "(stereo not given)", "activity change, negative = inhibition": "inactive: -16.7%"}
{"smiles": "Cc1cc(C)cc(OP(C)(=O)Nc2ccc(C)cc2C)c1", "note": "(stereo not given)", "activity change, negative = inhibition": "inactive: -20.2%"}
{"smiles": "COc1ccccc1OP(C)(=O)Nc1cccc(Br)c1", "note": "(stereo not given)", "activity change, negative = inhibition": "inactive: 0.702%"}
{"smiles": "Cc1ccc(C)c(NP(C)(=O)Oc2ccccc2)c1", "note": "(stereo not given)", "activity change, negative = inhibition": "inactive: 0.89%"}
{"smiles": "Cc1cc(C)cc(OP(C)(=O)Nc2ccccn2)c1", "note": "(stereo not given)", "activity change, negative = inhibition": "inactive: 8.42%"}
{"smiles": "CP(=O)(Nc1cccc(Br)c1)Oc1ccccc1", "note": "(stereo not given)", "activity change, negative = inhibition": "inactive: -3.96%"}
{"smiles": "CCOC(=O)c1ccc(NP(C)(=O)Oc2ccc(F)cc2)cc1", "note": "(stereo not given)", "activity change, negative = inhibition": "inactive: 0.148%"}
{"smiles": "COc1ccc(OP(C)(=O)Nc2ccc(SC(F)(F)F)cc2)cc1", "note": "(stereo not given)", "activity change, negative = inhibition": "inactive: -17.5%"}
{"smiles": "CCCCCOc1ccc(NP(C)(=O)Oc2ccc(Cl)cc2Cl)cc1", "note": "(stereo not given)", "activity change, negative = inhibition": "inactive: 13.5%"}
{"smiles": "CCN(CC)CCCOC(=O)C(O)(c1ccccc1)C1CCCCC1", "note": "(stereo not given)", "activity change, negative = inhibition": "inactive: -13.9%"}
{"smiles": "CP(=O)(Nc1ccccc1F)Oc1ccccc1", "note": "(stereo not given)", "activity change, negative = inhibition": "inactive: 2.18%"}
{"smiles": "CC(C)c1ccc(OP(C)(=O)Nc2ccc(SC(F)(F)F)cc2)cc1", "note": "(stereo not given)", "activity change, negative = inhibition": "inactive: -3.91%"}
{"smiles": "O=C(OCCN1CCN(CCOCc2ccccc2)CC1)C(O)(c1ccccc1)c1ccccc1", "activity change, negative = inhibition": "inactive: -3.76%"}
{"smiles": "CCOP(C)(=S)SCC(=O)NC(C)(CC)C(=O)O", "note": "(stereo not given)", "activity change, negative = inhibition": "inactive: 2.2%"}
{"smiles": "CP(=O)(Nc1ccc(SC(F)(F)F)cc1)Oc1ccc(F)cc1", "note": "(stereo not given)", "activity change, negative = inhibition": "inactive: -0.874%"}
{"smiles": "Cc1ccccc1NP(C)(=O)Nc1ccccc1C", "activity change, negative = inhibition": "inactive: -0.869%"}
{"smiles": "CP(=O)(Nc1ccc2c(c1)OCCO2)Oc1ccccc1", "note": "(stereo not given)", "activity change, negative = inhibition": "inactive: -31.5%"}
{"smiles": "CN(C)CCOC(=O)C(O)(c1ccccc1)C1CCCCC1", "note": "(stereo not given)", "activity change, negative = inhibition": "inactive: 1.58%"}
{"smiles": "COc1ccc(NP(C)(=O)Oc2ccccc2OC)cc1", "note": "(stereo not given)", "activity change, negative = inhibition": "inactive: 3.53%"}
{"smiles": "O=[N+]([O-])c1ccc(OP2(=O)COCCO2)cc1", "note": "(stereo not given)", "activity change, negative = inhibition": "inactive: -7.98%"}
{"smiles": "Cc1cc(-c2cccc3ccccc23)c(C)cn1.O=[N+]([O-])c1cc([N+](=O)[O-])c(O)c([N+](=O)[O-])c1", "activity change, negative = inhibition": "inactive: -0.81%"}
{"smiles": "CCOC(=O)c1ccc(NP(C)(=O)Oc2ccc(Cl)cc2)cc1", "note": "(stereo not given)", "activity change, negative = inhibition": "inactive: -1.44%"}
{"smiles": "CP(=O)(OC12CC3CC(CC(C3)C1)C2)OC12CC3CC(CC(C3)C1)C2", "activity change, negative = inhibition": "inactive: -6.18%"}
{"smiles": "COc1ccccc1OP(C)(=O)Nc1c(C)n(C)n(-c2ccccc2)c1=O", "note": "(stereo not given)", "activity change, negative = inhibition": "inactive: 1.81%"}
{"smiles": "CCc1ccc(OP(C)(=O)Nc2cccnc2)cc1", "note": "(stereo not given)", "activity change, negative = inhibition": "inactive: -0.759%"}
{"smiles": "CCN(CC)CC(O)COC(=O)C(O)(c1ccccc1)C1CCCCC1", "note": "(stereo not given)", "activity change, negative = inhibition": "inactive: 2%"}
{"smiles": "COc1ccccc1OP(C)(=O)Nc1ccccc1Br", "note": "(stereo not given)", "activity change, negative = inhibition": "inactive: 0.276%"}
{"smiles": "CC(C)(C)c1ccc(OP(C)(=O)O)cc1", "activity change, negative = inhibition": "inactive: -16%"}
{"smiles": "CP(=O)(Nc1ccc(Cl)cc1)Oc1ccc(F)cc1", "note": "(stereo not given)", "activity change, negative = inhibition": "inactive: -3.51%"}
{"smiles": "COc1ccc(OP(C)(=O)Nc2ccccn2)cc1", "note": "(stereo not given)", "activity change, negative = inhibition": "inactive: 7.3%"}
{"smiles": "CN(C)CCOC(=O)C(O)(c1ccccc1)C1CCCC1", "note": "(stereo not given)", "activity change, negative = inhibition": "inactive: -2.24%"}
{"smiles": "COc1ccccc1OP(C)(=O)Nc1ccc(C)cc1C", "note": "(stereo not given)", "activity change, negative = inhibition": "inactive: 4.98%"}
{"smiles": "CP(=O)(Nc1ccccn1)Oc1ccccc1", "note": "(stereo not given)", "activity change, negative = inhibition": "inactive: -1.32%"}
{"smiles": "CCc1ccc(OP(C)(=O)O)cc1", "activity change, negative = inhibition": "inactive: -0.427%"}
{"smiles": "Cc1c(NP(C)(=O)Oc2ccc(C(C)C)cc2)c(=O)n(-c2ccccc2)n1C", "note": "(stereo not given)", "activity change, negative = inhibition": "inactive: -10.4%"}
{"smiles": "COc1ccccc1OP(C)(=O)Nc1ccc(C)c(C)c1", "note": "(stereo not given)", "activity change, negative = inhibition": "inactive: -12.5%"}
{"smiles": "COc1ccc(OP(C)(=O)Nc2ccccc2Br)cc1", "note": "(stereo not given)", "activity change, negative = inhibition": "inactive: -3.3%"}
{"smiles": "Cc1cc(C)cc(OP(C)(=O)Nc2cccc(C(F)(F)F)c2)c1", "note": "(stereo not given)", "activity change, negative = inhibition": "inactive: -2.58%"}
{"smiles": "CP(=O)(OCCOc1ccccc1)OCCOc1ccccc1", "activity change, negative = inhibition": "inactive: -0.188%"}
{"smiles": "Cc1nc2ccc3ccccc3c2o1.O=[N+]([O-])c1cc([N+](=O)[O-])c(O)c([N+](=O)[O-])c1", "activity change, negative = inhibition": "inactive: -13.8%"}
